# Values of other authors, collected in patent US20050158405A1, “Personal decontaminant” (published 2005).
# Key:
# spores = conditions: according to APIC
# hydrophilic viruses = conditions: according to APIC
SMILES,sporicidal activity (spores),ability to kill hydrophilic viruses (hydrophilic viruses)
CCO,lack sporicidal activity,–
CC(C)O,lack sporicidal activity,lacks the ability to kill hydrophilic viruses
